Properties, as collected for the OPERA models

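These are experimental values that the OPERA curators gathered from public databases to train and test their QSAR models. One number stands for a compound and property, with no spread given. Method and conditions are not stated for these values. The measured form (salt, isomer or mixture) is not always the one drawn. Unmarked limits or estimates from the upstream databases cannot be ruled out.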

Melting points are in °C.
The octanol-water partition coefficient is given as log10; larger values mean a more lipophilic compound.
Water solubility is log10 of mol/L, nominally at 25 °C; higher is more soluble.
Vapor pressure is log10 of mmHg; the set covers 15 to 30 °C, mostly 20 to 25 °C.
The Henry's law constant is on a log10 scale in atm·m3/mol (set defined at 25 °C); higher favours air over water.
The unbound fraction in human plasma runs from 0 (all bound) to 1 (all free).
Clint is human hepatic intrinsic clearance in µL/min per million cells; 0 means that no clearance was seen.

- CCCCCOC(N)=O [Carbamic acid, pentyl ester (8CI)(9CI)]: mp 94 °C; log S -1.47 (log10 mol/L)
- O=P1(NCCNP2(=O)Oc3ccccc3-c3ccccc32)Oc2ccccc2-c2ccccc21 (configuration not stated): mp 272.6 °C; logP (octanol/water) 2.258
- O=C([O-])CP(=O)([O-])O[O-].[Na+].[Na+].[Na+] [Acetic acid, 2-hydroxy-2-phosphono-, sodium salt (1:3)]: mp 359.9 °C; log vapor pressure -6.87 (log10 mmHg)
- CC(C)(c1ccccc1)c1ccc(O)cc1 [4-Cumylphenol]: logP (octanol/water) 3.7; log S -3.47 (log10 mol/L)
- Oc1ccc2c3c1O[C@H]1[C@@H](O)CC[C@@]4(O)[C@@H](C2)N(CC2CCC2)CC[C@]314 [Nalbuphine]: mp 230 °C; logP (octanol/water) 1.4; log S -2.233 (log10 mol/L)
- C[C@H]1CC(=O)C=C2CC[C@H]3[C@@H]4CC[C@H](O)[C@@]4(C)CC[C@@H]3[C@]21C [17beta-Hydroxy-1alpha-methylandrost-4-ene-3-one]: logP (octanol/water) 2.92; log S -3.526 (log10 mol/L)
- CCCCCCCCn1sccc1=O [Octhilinone]: Henry's law constant -7.686 (log10 atm·m3/mol); fraction unbound 0.02822; intrinsic clearance 12.72 µL/min/10^6 cells
- CCC1(C)C(=O)NC(=O)NC1=O [5-Ethyl-5-methyl-1H,3H,5H-pyrimidin-2,4,6-trione]: mp 216 °C; log S -1.196 (log10 mol/L)
- CC(C)(C)OOC1(OOC(C)(C)C)CCCCC1 [Cyclohexylidenebis(tert-butyl) peroxide]: logP (octanol/water) 6.85; log vapor pressure -1.035 (log10 mmHg)
- COc1ccc(CN2CCNCC2)c(OC)c1OC [Trimetazidine]: logP (octanol/water) 1.143; log vapor pressure -4.727 (log10 mmHg)
- CC(C)(C)CC(C)(C)c1ccc(Nc2ccc(C(C)(C)CC(C)(C)C)cc2)cc1 [N,N-Bis(4-tert-octylphenyl)amine]: mp 95.7 °C; log vapor pressure -7.084 (log10 mmHg)
- CCCCOC(=O)c1ccccc1N [Butyl anthranilate]: mp -2.5 °C; logP (octanol/water) 3.69; log S -3.383 (log10 mol/L)
- CO[C@]12C[C@@H](CO)CN(C)[C@@H]1Cc1c[nH]c3cccc2c13 [10Alpha-Methoxy-9,10-dihydrolysergol]: logP (octanol/water) 0.8; log S -2.813 (log10 mol/L); log vapor pressure -4.736 (log10 mmHg)
- COCCOC(=O)C(C#N)(C(=O)c1ccccc1C(F)(F)F)c1ccc(C(C)(C)C)cc1 (configuration not stated) [Cyflumetofen]: log S -7.2 (log10 mol/L); log vapor pressure -7.354 (log10 mmHg); Henry's law constant -6.033 (log10 atm·m3/mol)
- CC(C)=CC1C(C(=O)OCc2ccc(C)cc2C)C1(C)C (configuration not stated) [Dimethrin]: log S -6.9 (log10 mol/L); log vapor pressure -4.764 (log10 mmHg); Henry's law constant -4.119 (log10 atm·m3/mol)
- FC(F)(F)N1C(F)(F)C(F)(F)OC(F)(F)C1(F)F [Perfluoro(N-methylmorpholine)]: logP (octanol/water) 4.3; log S -5.596 (log10 mol/L); log vapor pressure 2.338 (log10 mmHg)
- CCc1nn(C)c(C(=O)NCc2ccc(C(C)(C)C)cc2)c1Cl [Tebufenpyrad]: log vapor pressure -7.529 (log10 mmHg); Henry's law constant -7.964 (log10 atm·m3/mol); intrinsic clearance 15.94 µL/min/10^6 cells
- C#CC(O)(C=CCl)CC (configuration not stated) [Ethchlorvynol]: logP (octanol/water) 1.8; log S -3.005 (log10 mol/L); fraction unbound 0.4583
- C[C@]12CC[C@H]3[C@@H](C=C[C@]4(O)C[C@@H](O)CC[C@]34C)[C@@H]1[C@@H]1C[C@@H]1C2=O: logP (octanol/water) 2.03; log S -5.546 (log10 mol/L)
- Brc1ccc(Oc2ccccc2)c(Br)c1 [2,4-Dibromo-1-phenoxybenzene]: mp 20 °C; log vapor pressure -3.898 (log10 mmHg)
- CCSCCOP(=S)(OC)OC [Demeton-O-methyl]: log S -2.839 (log10 mol/L); log vapor pressure -3.727 (log10 mmHg)
- O=C([O-])CNCO.[Na+] [Sodium N-(hydroxymethyl)glycinate]: mp 193 °C; logP (octanol/water) -1.533
- FC=CC(F)(F)F [1,3,3,3-Tetrafluoroprop-1-ene]: logP (octanol/water) 1.6; log S -2.485 (log10 mol/L)
- CNC(=O)Oc1cc(C)c(C)c(C)c1 [3,4,5-Trimethylphenyl methylcarbamate]: log S -3.205 (log10 mol/L); Henry's law constant -7.364 (log10 atm·m3/mol)
- COc1cc(OC)nc(Sc2cccc(Cl)c2C(=O)[O-])n1.[Na+] [Pyrithiobac-sodium]: log S 0.32 (log10 mol/L); fraction unbound 0.03087; intrinsic clearance 0 µL/min/10^6 cells
- CC(C)(c1ccc(OCC2CO2)cc1)c1ccc(OCC2CO2)cc1 (configuration not stated) [Bisphenol A diglycidyl ether]: logP (octanol/water) 3.209; log vapor pressure -9.294 (log10 mmHg)
- CC(C(=O)O)N(C(=O)c1ccccc1)c1ccc(F)c(Cl)c1 (configuration not stated) [Flamprop]: log S -4.25 (log10 mol/L); log vapor pressure -8.747 (log10 mmHg)

3 of these entries, quoted again:

* CO[C@]12C[C@@H](CO)CN(C)[C@@H]1Cc1c[nH]c3cccc2c13 [10Alpha-Methoxy-9,10-dihydrolysergol]: logP (octanol/water) 0.8; log S -2.813 (log10 mol/L); log vapor pressure -4.736 (log10 mmHg)
* C#CC(O)(C=CCl)CC (configuration not stated) [Ethchlorvynol]: logP (octanol/water) 1.8; log S -3.005 (log10 mol/L); fraction unbound 0.4583
* Oc1ccc2c3c1O[C@H]1[C@@H](O)CC[C@@]4(O)[C@@H](C2)N(CC2CCC2)CC[C@]314 [Nalbuphine]: mp 230 °C; logP (octanol/water) 1.4; log S -2.233 (log10 mol/L)

From the experimental data distributed with OPERA 2.9.